Test results as given in US20120259123A1, “AMINOPYRIDINE COMPOUND” (UBE INDUSTRIES, LTD., priority 2009, published 2012).

Protein sequences, listed by entry. Tags and fused reporters are not part of them. Lines headed by an entry give the natural chain unless they say otherwise; changes in a name come on top.
UniProt P43116: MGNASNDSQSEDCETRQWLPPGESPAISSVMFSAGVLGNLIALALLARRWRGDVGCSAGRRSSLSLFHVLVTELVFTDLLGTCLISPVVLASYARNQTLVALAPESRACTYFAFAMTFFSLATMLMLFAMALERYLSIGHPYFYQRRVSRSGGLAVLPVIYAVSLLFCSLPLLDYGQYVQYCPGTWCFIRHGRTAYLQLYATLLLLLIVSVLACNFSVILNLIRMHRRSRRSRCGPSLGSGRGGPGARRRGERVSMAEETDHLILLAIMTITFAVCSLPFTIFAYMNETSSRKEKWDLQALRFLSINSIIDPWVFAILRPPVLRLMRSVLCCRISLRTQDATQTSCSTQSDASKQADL

Biological target: T1, human EP2 receptor (Homo sapiens, UniProt P43116)
T1 construct: purchased Euroscreen S.A. ES-562-M; host or cells: HEK293 cells
Assay: Measurement of EP2 receptor binding affinity ([3H]PGE2 displacement)
Conditions: membrane fraction of HEK293 cells expressing human EP2 receptor; Table 4
Experimental: Measurement of EP2 receptor binding affinity was carried out according to the method of Abramovitz et al. (Biochimica et Biophysica Acta, 1483, 285 (2000)). […] The membrane fraction was recovered on glass fiber filter paper (GF/B, available from Whatman PLC) using a cell harvester […], available from Brandel Inc.), and after washing with a buffer solution (10 mM MES-KOH (pH 6.0), 10 mM MgCl2), radioactivity was measured with a liquid scintillation analyzer (2000CA, available from Packard). […] The dissociation constant (Kd value) was calculated by Scatchard analysis.

Compound `CCCCC[C@H](O)/C=C/[C@H]1[C@H](O)CC(=O)[C@@H]1C/C=C\CCCC(=O)O` [PGE2, Prostaglandin E2, reference compound] has a Ki of 7.1 nM.
